Reference: patent US9986740B2, “Methods of identifying insect-TRPA1 modulators” (BRANDEIS UNIVERSITY, priority 2010, dated 2018)

Molecular target: T1, dTRPA1 (Drosophila melanogaster, UniProt Q7Z020)
T1 sequence (Q7Z020 1-1197): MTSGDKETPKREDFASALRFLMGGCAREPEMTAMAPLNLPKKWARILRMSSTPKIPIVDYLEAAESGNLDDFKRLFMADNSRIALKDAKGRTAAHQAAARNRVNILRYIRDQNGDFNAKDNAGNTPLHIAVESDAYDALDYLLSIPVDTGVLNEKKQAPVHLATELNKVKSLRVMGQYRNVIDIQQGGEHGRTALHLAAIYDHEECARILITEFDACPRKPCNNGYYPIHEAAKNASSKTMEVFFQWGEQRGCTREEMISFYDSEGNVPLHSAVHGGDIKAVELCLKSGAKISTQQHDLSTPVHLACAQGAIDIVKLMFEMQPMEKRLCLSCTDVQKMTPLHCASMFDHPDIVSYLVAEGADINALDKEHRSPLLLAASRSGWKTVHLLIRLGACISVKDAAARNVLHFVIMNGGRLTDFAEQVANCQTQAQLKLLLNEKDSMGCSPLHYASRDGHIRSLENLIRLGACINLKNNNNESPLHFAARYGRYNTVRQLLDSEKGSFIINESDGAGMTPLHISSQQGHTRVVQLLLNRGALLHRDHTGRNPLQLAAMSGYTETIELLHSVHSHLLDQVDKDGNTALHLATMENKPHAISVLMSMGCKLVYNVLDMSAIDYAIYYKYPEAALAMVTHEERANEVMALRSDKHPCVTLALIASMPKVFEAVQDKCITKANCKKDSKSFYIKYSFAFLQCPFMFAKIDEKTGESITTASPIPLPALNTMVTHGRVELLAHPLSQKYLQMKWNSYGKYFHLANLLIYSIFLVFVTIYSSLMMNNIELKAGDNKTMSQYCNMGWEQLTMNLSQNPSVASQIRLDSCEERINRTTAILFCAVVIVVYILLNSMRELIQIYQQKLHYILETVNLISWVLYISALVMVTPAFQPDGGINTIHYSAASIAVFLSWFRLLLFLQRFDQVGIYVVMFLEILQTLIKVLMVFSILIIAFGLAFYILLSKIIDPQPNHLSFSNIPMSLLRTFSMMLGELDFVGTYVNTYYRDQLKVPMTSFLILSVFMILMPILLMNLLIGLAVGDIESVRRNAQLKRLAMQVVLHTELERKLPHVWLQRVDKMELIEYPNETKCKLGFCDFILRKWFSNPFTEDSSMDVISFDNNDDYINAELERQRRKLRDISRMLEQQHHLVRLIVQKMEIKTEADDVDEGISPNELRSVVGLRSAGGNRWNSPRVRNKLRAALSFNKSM
Experiment: Two-electrode voltage clamping on Xenopus laevis oocytes expressing dTRPA1
Type: cell-based

2-aminoethoxydiphenyl borate [2-APB]
Activation of dTRPA1: did not activate
Response of dTRPA1 expressing oocytes: did not respond
